{"source": "ChEMBL document CHEMBL4837224", "about": "“UNC5293, a potent, orally available and highly MERTK-selective inhibitor” (Eur J Med Chem, 2021)", "target": "T1, Tyrosine-protein kinase Mer (Mus musculus) (UniProt Q60805)", "T1 sequence (whole entry)": "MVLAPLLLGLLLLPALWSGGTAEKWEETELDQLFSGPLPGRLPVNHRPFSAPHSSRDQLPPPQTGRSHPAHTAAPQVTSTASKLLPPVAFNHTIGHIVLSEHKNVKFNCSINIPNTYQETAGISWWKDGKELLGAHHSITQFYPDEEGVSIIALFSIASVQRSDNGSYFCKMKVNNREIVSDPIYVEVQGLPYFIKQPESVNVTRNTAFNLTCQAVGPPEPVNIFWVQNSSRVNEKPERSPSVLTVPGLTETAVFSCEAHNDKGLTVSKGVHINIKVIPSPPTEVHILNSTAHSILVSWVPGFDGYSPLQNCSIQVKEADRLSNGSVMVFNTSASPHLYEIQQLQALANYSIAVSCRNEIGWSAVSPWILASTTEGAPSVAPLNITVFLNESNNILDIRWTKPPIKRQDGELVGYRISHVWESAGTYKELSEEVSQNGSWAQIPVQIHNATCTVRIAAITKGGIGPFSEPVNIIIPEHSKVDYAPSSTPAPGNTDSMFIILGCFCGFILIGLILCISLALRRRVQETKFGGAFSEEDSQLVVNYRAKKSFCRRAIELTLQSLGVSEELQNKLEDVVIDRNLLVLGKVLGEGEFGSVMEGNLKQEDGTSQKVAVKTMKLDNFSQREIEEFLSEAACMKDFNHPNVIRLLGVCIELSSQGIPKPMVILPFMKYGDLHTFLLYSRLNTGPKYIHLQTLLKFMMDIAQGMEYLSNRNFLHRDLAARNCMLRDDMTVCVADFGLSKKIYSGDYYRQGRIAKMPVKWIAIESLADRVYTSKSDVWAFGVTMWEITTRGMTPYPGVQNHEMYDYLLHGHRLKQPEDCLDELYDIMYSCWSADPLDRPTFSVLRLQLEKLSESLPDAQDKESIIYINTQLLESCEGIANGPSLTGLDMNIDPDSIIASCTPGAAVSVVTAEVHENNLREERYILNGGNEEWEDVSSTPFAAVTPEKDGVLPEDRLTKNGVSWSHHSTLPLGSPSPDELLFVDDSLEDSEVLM", "assay": "In vivo inhibition of MERTK in NSG mouse xenografted with human 697 cells assessed as reduction in MERTK phosphorylation at 120 mg/kg, po preincubated for 10 mins followed by vanadate addition and measured after 10 mins by immunoblot analysis", "format": "functional, organism-based", "details": "time 20.0 min", "note": "The source made the active and inactive calls. No cut-off for these calls is given here."}
{"smiles": "CCC[C@H](C)Nc1ncc2c(C3CCN(C(=O)c4cc(C)nc(C)c4)CC3)cn([C@H]3CC[C@H](O)CC3)c2n1", "values": [{"measurement": "inhibition", "value": "Active"}]}
